The values below come from patent EP4840874A1, “NOVEL PEPTIDE HAVING ACTIVITIES OF INHIBITING MUSCLE LOSS AND PROMOTING MUSCLE GROWTH, AND USES THEREOF” (dated 2026).

Assay [1] relates to C2C12 myoblasts. Description: Muscle protein synthesis-related protein expression (Western blot). The settings on record: 5 or 50 µM, 3 days differentiation. On the procedure:
To determine the effect of the peptide prepared in Preparation Example 1 on the expression of proteins related to muscle protein synthesis, the expression levels of signaling protein markers related to muscle protein synthesis in myoblasts were evaluated through Western blot analysis.
C2C12 cells (mouse myoblast line) were cultured in DMEM medium containing 1% P/S and 2% BCS. When cell confluency reached approximately 70 to 80%, cells were seeded into 6-well culture plates at a density of 5 x 10^5 cells/well with 2 ml aliquots. Subsequently, when cell confluency reached 100%, the medium was replaced with differentiation medium (1% P/S, 2% horse serum), and the peptide of SEQ ID NO: 1 was added at a concentration of 5 µM or 50 µM. Subsequently, the differentiation medium and the peptide of SEQ ID NO: 1 were replaced every two days. Three days after the first replacement, lysis buffer was added to lyse the cells, which was then centrifuged at 4°C and 12,000 rpm for 30 minutes to obtain the protein, which was quantified using a BCA kit. SDS-PAGE was performed on the protein, and the protein was electrotransferred onto a membrane. After blocking the protein-electrophoresed membrane with 5% skim milk, the anti-SIRT1 primary antibody (Cell signaling Technology, USA), anti-IGF-1 primary antibody (Cell signaling Technology, USA), anti-pmTOR primary antibody (Cell signaling Technology, USA), and anti-p70S6K primary antibody (Cell signaling Technology, USA) were reacted with the anti-β-actin primary antibody (Santa Cruz, USA) as a loading control overnight at 4°C. The membrane was washed with PBS-T, and the Peroxidase-conjugated AffiniPure Goat Anti-Rabbit IgG (H+L) secondary antibody (Jackson immunoResearch, USA) and the Peroxidase-conjugated AffiniPure Goat Anti-Mouse IgG (H+L) secondary antibody (Jackson immunoResearch, USA) were incubated for 1 hour at room temperature. After washing the membrane again with PBS-T, visualization was performed using a Gel Doc (Bio-Rad, Hercules, CA, USA) with a Western detection reagent (Elpis Biotech, Daejeon, Korea).
In general terms: Immunoblotting shows a protein as a band on a membrane.

In assay [2] the test system is C2C12 myoblasts. Description: Early/mid/late differentiation protein expression (Western blot). Conditions: 3 days differentiation. The protocol:
To determine the effect of the peptide prepared in Preparation Example 1 on the differentiation of myoblasts into muscle cells/muscle fibers, the expression levels of protein markers related to early/mid/late differentiation in myoblasts were evaluated through Western blot analysis.
C2C12 cells (mouse myoblast line) were cultured in DMEM medium containing 1% P/S and 2% BCS. When cell confluency reached approximately 70 to 80%, cells were seeded into 6-well culture plates at a density of 5 x 10^5 cells/well by 2 ml. Subsequently, when cell confluency reached 100%, the medium was replaced with differentiation medium (1% P/S, 2% horse serum), and the peptide of SEQ ID NO: 1 was added at a concentration of 5 µM or 50 µM. Subsequently, the differentiation medium and the peptide of SEQ ID NO: 1 were replaced every two days. Three days after the first replacement, lysis buffer was added to lyse the cells, which was then centrifuged at 4°C and 12,000 rpm for 30 minutes to obtain the protein, which was quantified using a BCA kit. SDS-PAGE was performed on the protein, and the protein was electrotransferred onto a membrane. After blocking the protein-electrophoresed membrane with 5% skim milk, the anti-Myf5 primary antibody (Abcam, UK), the anti-MyoG primary antibody (Santa Cruz, USA), and the anti-α-actinin primary antibody (Santa Cruz, USA) were reacted with the anti-β-actin primary antibody (Santa Cruz, USA) as a loading control overnight at 4°C. The membrane was washed with PBS-T, and Peroxidase-conjugated AffiniPure Goat Anti-Rabbit IgG (H+L) secondary antibody (Jackson immunoResearch, USA) and Peroxidase-conjugated AffiniPure Goat Anti-Mouse IgG (H+L) secondary antibody (Jackson immunoResearch, USA) were reacted at room temperature for 1 hour. After washing the membrane again with PBS-T, visualization was performed using Gel Doc (Bio-Rad, Hercules, CA, USA) with Western detection reagent (Elpis Biotech, Daejeon, Korea).

For another assay, the system named is HepG2 hepatocytes. Description: Fat synthesis-related gene expression in oleic acid-treated hepatocytes (RT-PCR). The settings on record: 500 µM oleic acid, 5 or 50 µM peptide, 48 hours. On the procedure: To determine the effect of the peptide prepared in Preparation Example 1 on the expression of genes related to lipid synthesis, the expression levels of lipid synthesis-related gene markers in hepatocytes were evaluated through RT-PCR analysis.
HepG2 cells (human hepatocyte line) were cultured in DMEM medium containing 1% P/S and 10% FBS. When cell confluency reached approximately 70 to 80%, cells were seeded into 12-well culture plates at a density of 1 x 10^5 cells/well by 1 ml. Subsequently, when cell confluency in the 12-well culture plates reached approximately 70 to 80%, the medium was replaced with serum-free DMEM medium. After 4 hours, the medium was replaced with serum-free DMEM (1% BSA) supplemented with 500 µM oleic acid (Sigma, USA), and the cells were treated with the peptide of SEQ ID NO: 1 at concentrations of 5 µM or 50 µM and cultured for 48 hours. After culture, the cells were harvested and RNA was extracted using Trizol (Thermo Fisher Scientific, USA). DNA complementary to the extracted RNA was obtained using TOPScript™ RT DryMIX (enzynomics, Korea), and then polymerase chain reaction (PCR) was performed on lipid synthesis-related genes using TOPsimple™ DryMIX-nTaq (enzynomics, Korea). The mRNA expression levels of the markers were then compared under each sample treatment condition by running the samples on a 1.5% agarose gel. […]

In the case of `CC(C)[C@H](NC(=O)[C@@H](NC(=O)[C@@H](N)CC(=O)O)[C@@H](C)O)C(=O)N[C@@H](CCC(=O)O)C(=O)N[C@@H](CC(N)=O)C(=O)O`, in the assay on C2C12 myoblasts [1], the “protein expression level of IGF-1” value was “significantly increased in a peptide concentration-dependent manner”, the “protein expression level of SIRT1” value is recorded as “significantly increased in a peptide concentration-dependent manner”, the “protein expression level of p70S6K” value was “significantly increased in a peptide concentration-dependent manner” and the “protein expression level of pmTOR” value is “significantly increased in a peptide concentration-dependent manner”. For the same molecule, in the assay on C2C12 myoblasts [2] (5 or 50 µM), the “expression of Myf5 protein” value is given as “increased in a concentration-dependent manner”, the “expression of MyoG protein” value was “increased in a concentration-dependent manner” and the “expression of α-actinin protein” value is given as “increased in a concentration-dependent manner”. Besides, the “Myf5 protein expression level increase” value in the assay on C2C12 myoblasts [2] (peptide concentration 50 µM) is “more than 37 fold”. For the same molecule, in the assay on HepG2 hepatocytes, the “mRNA expression level of FAS increased by oleic acid” value is recorded as “decreased in a peptide concentration-dependent manner” and the “mRNA expression level of SREBP1 increased by oleic acid” value is reported as “decreased in a peptide concentration-dependent manner”.
